Data from patent publication US6107345A, “Benzocyclobutane compounds” (Adir et Compagnie, priority 1998, dated 2000).

The chains behind the UniProt entries cited, without tags or fusion partners. Residues count along the entry.
UniProt Q63380, 1-617: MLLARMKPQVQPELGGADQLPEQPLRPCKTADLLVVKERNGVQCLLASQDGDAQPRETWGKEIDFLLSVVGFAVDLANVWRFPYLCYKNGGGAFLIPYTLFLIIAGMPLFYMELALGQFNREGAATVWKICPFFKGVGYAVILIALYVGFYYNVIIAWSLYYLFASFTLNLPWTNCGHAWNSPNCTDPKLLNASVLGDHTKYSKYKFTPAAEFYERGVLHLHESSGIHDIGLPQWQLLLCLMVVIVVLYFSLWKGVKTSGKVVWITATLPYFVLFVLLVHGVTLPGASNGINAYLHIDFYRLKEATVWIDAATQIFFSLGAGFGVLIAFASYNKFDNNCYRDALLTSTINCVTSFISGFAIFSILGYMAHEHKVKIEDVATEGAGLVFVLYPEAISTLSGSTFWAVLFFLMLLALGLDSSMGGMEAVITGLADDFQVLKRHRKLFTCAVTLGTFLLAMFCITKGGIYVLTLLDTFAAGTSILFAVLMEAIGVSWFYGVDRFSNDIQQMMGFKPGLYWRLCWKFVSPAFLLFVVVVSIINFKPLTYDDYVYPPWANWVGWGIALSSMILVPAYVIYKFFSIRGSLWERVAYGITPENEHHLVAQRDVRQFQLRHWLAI
UniProt P31652, whole entry: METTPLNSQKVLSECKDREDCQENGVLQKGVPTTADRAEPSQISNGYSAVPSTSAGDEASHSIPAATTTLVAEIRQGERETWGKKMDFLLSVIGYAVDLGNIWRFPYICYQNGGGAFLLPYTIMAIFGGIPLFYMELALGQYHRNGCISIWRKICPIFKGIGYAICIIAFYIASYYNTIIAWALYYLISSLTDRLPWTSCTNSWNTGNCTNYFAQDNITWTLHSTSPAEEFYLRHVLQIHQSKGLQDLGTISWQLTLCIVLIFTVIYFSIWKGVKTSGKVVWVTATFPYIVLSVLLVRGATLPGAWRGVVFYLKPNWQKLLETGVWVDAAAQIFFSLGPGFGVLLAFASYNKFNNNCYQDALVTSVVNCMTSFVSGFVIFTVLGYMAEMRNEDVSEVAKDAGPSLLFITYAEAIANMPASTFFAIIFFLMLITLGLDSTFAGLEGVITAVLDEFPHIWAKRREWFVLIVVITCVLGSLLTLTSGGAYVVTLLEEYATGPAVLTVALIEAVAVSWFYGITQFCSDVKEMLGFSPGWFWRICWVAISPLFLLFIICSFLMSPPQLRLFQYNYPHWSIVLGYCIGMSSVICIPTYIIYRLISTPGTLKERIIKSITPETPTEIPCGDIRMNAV

How the values were obtained:
[1] = target: T1, noradrenaline reuptake sites (Rattus norvegicus, UniProt Q63380); assay: Determination of the affinity for noradrenaline reuptake sites ([3H]-nisoxetine competition); format: binding
T1 construct: The membranes are prepared from frontal cortex of rat; from tissue; host or cells: rat frontal cortex membranes
Method: The binding isotherms are analysed by non-linear regression to determine the IC50 values. Those values are converted into a dissociation constant (Ki) using the Cheng-Prusoff equation: […]
(§1) The results are expressed in pKi (-log Ki).

serotonin reuptake sites = target: T2, serotonin reuptake sites (Rattus norvegicus, UniProt P31652); assay: Determination of the affinity for serotonin reuptake sites ([3H]-paroxetine competition); format: binding; conditions: radioligand; read-out: dissociation constant Kd for the serotonin reuptake site
T2 construct: The membranes are prepared from frontal cortex of rate; from tissue; host or cells: frontal cortex membranes (rat, printed 'rate')
Method: Determination of the affinity for serotonin reuptake sites
The incubation buffer contains […] TRIS-HCl (pH 7.4), 120 mM NaCl and 5 mM KCl. The non-specific binding is determined using 10 μM citalopram. At the end of the incubation, the incubation medium is filtered and washed three times with 5 ml of cooled buffer. The radioactivity retained on the filters is determined by liquid scintillation counting. The binding isotherms are analysed by non-linear regression to determine the IC50 values. Those values are converted into a dissociation constant (Ki) using the Cheng-Prusoff equation: […]
as §1

Kd [1] | Structure (SMILES) | Kd (serotonin reuptake sites)
1.23 nM | CNCCC(Oc1ccccc1OC)c1ccccc1 (centres unmarked) [[^3 H]-nisoxetine, reference compound] | –
– | Fc1ccc([C@@H]2CCNC[C@H]2COc2ccc3c(c2)OCO3)cc1 [[^3 H]-paroxetine, reference compound] | 0.13 nM
